4 compounds from ChEMBL document CHEMBL4725433, “Methyl Scanning and Revised Binding Mode of 2-Pralidoxime, an Antidote for Nerve Agent Poisoning” (2020) can be followed below.

Amino acid sequences for entries named in this document (tags omitted). A change or cut given only in a name is not applied to a line headed by its entry.
UniProt O42275: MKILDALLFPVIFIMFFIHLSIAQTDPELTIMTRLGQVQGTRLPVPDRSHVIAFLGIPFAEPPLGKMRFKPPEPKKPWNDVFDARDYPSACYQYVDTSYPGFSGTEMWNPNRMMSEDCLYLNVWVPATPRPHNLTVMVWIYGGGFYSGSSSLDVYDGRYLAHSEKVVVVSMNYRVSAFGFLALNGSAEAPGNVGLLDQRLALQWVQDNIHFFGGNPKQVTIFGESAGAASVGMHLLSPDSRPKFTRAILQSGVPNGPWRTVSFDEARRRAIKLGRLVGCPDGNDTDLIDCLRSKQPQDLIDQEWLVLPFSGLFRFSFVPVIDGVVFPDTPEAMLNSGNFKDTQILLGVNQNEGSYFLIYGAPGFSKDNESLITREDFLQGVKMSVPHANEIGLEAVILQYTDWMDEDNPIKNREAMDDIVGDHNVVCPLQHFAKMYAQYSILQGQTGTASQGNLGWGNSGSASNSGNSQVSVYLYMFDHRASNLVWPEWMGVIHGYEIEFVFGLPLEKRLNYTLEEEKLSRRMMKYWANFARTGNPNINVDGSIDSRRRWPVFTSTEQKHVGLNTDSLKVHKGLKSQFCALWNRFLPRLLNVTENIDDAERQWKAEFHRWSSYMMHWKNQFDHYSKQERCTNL
UniProt P22303: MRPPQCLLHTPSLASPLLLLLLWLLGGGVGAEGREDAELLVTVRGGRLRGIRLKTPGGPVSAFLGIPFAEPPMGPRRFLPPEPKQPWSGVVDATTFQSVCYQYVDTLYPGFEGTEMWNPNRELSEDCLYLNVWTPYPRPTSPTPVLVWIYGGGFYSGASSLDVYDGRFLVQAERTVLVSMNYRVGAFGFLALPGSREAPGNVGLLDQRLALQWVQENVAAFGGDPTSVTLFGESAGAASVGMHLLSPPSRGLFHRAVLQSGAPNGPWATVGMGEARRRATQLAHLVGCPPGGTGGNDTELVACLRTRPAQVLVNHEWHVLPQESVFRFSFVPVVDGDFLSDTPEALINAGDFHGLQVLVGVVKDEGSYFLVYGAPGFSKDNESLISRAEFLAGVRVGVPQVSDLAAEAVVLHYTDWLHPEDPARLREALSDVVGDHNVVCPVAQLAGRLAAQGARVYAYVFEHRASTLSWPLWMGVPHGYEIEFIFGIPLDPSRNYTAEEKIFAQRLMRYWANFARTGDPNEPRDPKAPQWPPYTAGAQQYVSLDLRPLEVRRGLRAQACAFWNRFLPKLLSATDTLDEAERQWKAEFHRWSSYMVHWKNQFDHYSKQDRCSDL

Active and inactive are the calls of the source. The calls are words filed in the database; no cut-off is given here.

The target of assay [1] is Acetylcholinesterase (Electrophorus electricus) (UniProt O42275). Description: Reactivation of paraoxon ethyl-inhibited Electrophorus electricus AChE assessed as relative reactivation using acetylthiocholine iodide as substrate preincubated for 10 mins with paraoxon ethyl followed by at 18.8 uM measured after 30 mins by Ellman's method relative to 2-PAM. Set-up: scale not given: the % may be the effect or the level left. For orientation: Ellman's reagent forms a yellow product with free thiols.

Assay [2] has as its target Acetylcholinesterase (Homo sapiens) (UniProt P22303). Description: Reactivation of paraoxon ethyl-inhibited human AChE assessed as relative reactivation using S-acetylthiocholine iodide as substrate incubated for 10 mins with paraoxon ethyl followed by at 75 uM measured after 60 mins by Ellman's method relative to 2-PAM. Set-up: scale not given: the % may be the effect or the level left.

In assay [3] the target is Acetylcholinesterase (Electrophorus electricus) (UniProt O42275). Description: Reactivation of paraoxon ethyl-inhibited Electrophorus electricus AChE using acetylthiocholine iodide as substrate preincubated for 10 mins with paraoxon ethyl followed by at 150 uM measured after 30 mins by Ellman's method. Conditions: time 20.0 min.
The target of assay [4] is Acetylcholinesterase (Homo sapiens) (UniProt P22303). Description: Reactivation of paraoxon ethyl-inhibited human AChE assessed as relative reactivation using S-acetylthiocholine iodide as substrate incubated for 10 mins with paraoxon ethyl followed by at 18.8 uM measured after 60 mins by Ellman's method relative to 2-PAM. Set-up: scale not given: the % may be the effect or the level left.

Assay [5] has as its target Acetylcholinesterase (Electrophorus electricus) (UniProt O42275). In words: Reactivation of paraoxon ethyl-inhibited Electrophorus electricus AChE using acetylthiocholine iodide as substrate preincubated for 10 mins with paraoxon ethyl followed by at >150 uM measured after 30 mins by Ellman's method. Conditions: dose microM >150, time 30.0 min.
The target of assay [6] is Acetylcholinesterase (Homo sapiens) (UniProt P22303). Description: Reactivation of paraoxon ethyl-inhibited human AChE assessed as relative reactivation using S-acetylthiocholine iodide as substrate incubated for 10 mins with paraoxon ethyl followed by at 18.8 uM measured after 60 mins by Ellman's method. More on the design: scale not given: the % may be the effect or the level left.

With `Cc1cc[n+](C)c(/C=N/O)c1`, the Activity in assay [1] (filed as activator) is 90%; in assay [2] (filed as activator), 85%; in assay [4] (filed as activator), 68%; in assay [6] (filed as activator), 67%. For the same compound, the outcome in assay [3] (filed as activator) was Active. Also, the result in assay [5] was inactive.
`Cc1cccc(/C=N/O)[n+]1C`: the Activity in assay [1] (filed as activator) was 87%; in assay [2] (filed as activator), 62%; in assay [4] (filed as activator), 45%; in assay [6] (filed as activator), 43%. For the same compound, the outcome in assay [3] (filed as activator) was Active. Besides, in assay [5], the outcome was inactive.
As to `Cc1ccc[n+](C)c1/C=N/O`, the Activity in assay [1] is 13%; in assay [2], 20%; in assay [4] it was 11%; in assay [6], 13%. Moreover, in assay [3], the result was inactive.
For `Cc1ccc(/C=N/O)[n+](C)c1`, the Activity in assay [1] (filed as activator) turned out to be 44%; in assay [2], 37%; in assay [4], 32%; in assay [6], 34%. In addition, the outcome in assay [3] was inactive.
